Experimental data as given in patent publication US6753317.

How the values were obtained:
[1] = biological target: δ-opioid receptor of the mouse vas deferens (MVD) (mouse) (UniProt P32300); test: cell-based or functional assay
[2] = biological target: δ-opioid receptor (rat brain synaptosomal preparation) (rat) (UniProt P33533); test: radioligand competition vs [^3H]DPDPE, rat brain synaptosomes

IC50 (δ agonist, MVD) [1] [nM]	Ki [2] [nM]	Substance
0.54	–	dermorphin C (peptide)
–	0.022	H-Dmt-Tic-OH (peptide)
